# Like-named read-outs stand apart in the source and are kept apart here.
# By UniProt entry, the sequences of proteins in these tests, tags left out.
# UniProt P31645, whole entry: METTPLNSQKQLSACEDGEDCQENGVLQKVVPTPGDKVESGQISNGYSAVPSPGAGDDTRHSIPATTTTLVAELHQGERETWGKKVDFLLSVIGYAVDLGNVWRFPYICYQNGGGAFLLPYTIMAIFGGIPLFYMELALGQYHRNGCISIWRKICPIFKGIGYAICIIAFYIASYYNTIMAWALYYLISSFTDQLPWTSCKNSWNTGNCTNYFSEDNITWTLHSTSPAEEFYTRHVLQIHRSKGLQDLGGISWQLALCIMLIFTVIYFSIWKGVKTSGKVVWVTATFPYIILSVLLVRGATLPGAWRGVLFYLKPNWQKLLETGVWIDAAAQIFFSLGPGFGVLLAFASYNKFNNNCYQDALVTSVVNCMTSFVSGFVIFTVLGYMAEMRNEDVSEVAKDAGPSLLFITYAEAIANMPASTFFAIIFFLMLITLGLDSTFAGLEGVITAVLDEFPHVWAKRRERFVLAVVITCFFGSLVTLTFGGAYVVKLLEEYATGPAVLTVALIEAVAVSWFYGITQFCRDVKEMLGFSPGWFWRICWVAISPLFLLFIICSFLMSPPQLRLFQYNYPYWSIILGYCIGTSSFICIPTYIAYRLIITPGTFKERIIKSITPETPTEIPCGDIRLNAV
# Experiments:
# [1] = molecular target: T1, Transporter, Serotonin (5-Hydroxytryptamine) (SERT) (Homo sapiens, UniProt P31645)
# [2] = molecular target: T1, Transporter, Serotonin (5-Hydroxytryptamine) (SERT); assay: biochemical; settings: read-out: SERT, % inhibition, 100 nM compound
SMILES,"SERT, % inhibition ([1]; 100 nM compound, 0.1 µM)","SERT, % inhibition ([1]; 10 nM compound, 0.01 µM)",inhibition at 0.1 µM [2]
"[2H]C1([2H])NC([2H])([2H])C([2H])(c2ccc(Cl)c(Cl)c2)c2ccc(-c3ccc4ncnn4c3)cc21 (single isomer, unassigned) [Compound 8A, 7-([1,2,4]triazolo[1,5-a]pyridin-6-yl)-4-(3,4-dichlorophenyl)-1,2,3,4-tetrahydroisoquinoline-1,1,3,3,4-d5]",91%,–,–
"[2H]C1([2H])NC([2H])([2H])C([2H])(c2ccc(Cl)c(Cl)c2)c2ccc(-c3ccc4ncnn4c3)cc21 (single isomer, unassigned) [Compound 8B, 7-([1,2,4]triazolo[1,5-a]pyridin-6-yl)-4-(3,4-dichlorophenyl)-1,2,3,4-tetrahydroisoquinoline-1,1,3,3,4-d5]",51%,34%,–
"[2H]C1([2H])NCC(c2ccc(Cl)c(Cl)c2)c2ccc(-c3ccc4ncnn4c3)cc21 (single isomer, unassigned) [Compound 12A, 7-([1,2,4]triazolo[1,5-a]pyridin-6-yl)-4-(3,4-dichlorophenyl)-1,2,3,4-tetrahydroisoquinoline-1,1-d2]",94%,54%,–
"[2H]C1([2H])NCC(c2ccc(Cl)c(Cl)c2)c2ccc(-c3ccc4ncnn4c3)cc21 (single isomer, unassigned) [Compound 12B, 7-([1,2,4]triazolo[1,5-a]pyridin-6-yl)-4-(3,4-dichlorophenyl)-1,2,3,4-tetrahydroisoquinoline-1,1-d2]",54%,21%,–
"[2H]C1([2H])NCc2cc(-c3ccc4ncnn4c3)ccc2C1([2H])c1ccc(Cl)c(Cl)c1 (single isomer, unassigned) [Compound 16A, 7-([1,2,4]triazolo[1,5-a]pyridin-6-yl)-4-(3,4-dichlorophenyl)-1,2,3,4-tetrahydroisoquinoline-3,3,4-d3]",96%,59%,–
"[2H]C1([2H])NCc2cc(-c3ccc4ncnn4c3)ccc2C1([2H])c1ccc(Cl)c(Cl)c1 (single isomer, unassigned) [Compound 16B, 7-([1,2,4]triazolo[1,5-a]pyridin-6-yl)-4-(3,4-dichlorophenyl)-1,2,3,4-tetrahydroisoquinoline-3,3,4-d3]",46%,2%,–
"Clc1ccc(C2CNCc3cc(-c4ccc5ncnn5c4)ccc32)cc1Cl (stereo not drawn) [Formula I, 7-([1,2,4]triazolo[1,5-a]pyridin-6-yl)-4-(3,4-dichlorophenyl)-1,2,3,4-tetrahydroisoquinoline]",–,–,91%

# From patent US20230002377A1, “THERAPEUTIC COMBINATIONS OF DRUGS AND METHODS OF USING THEM” (HARMONY BIOSCIENCES, LLC, priority 2020, published 2023)
